Compound activity from PubChem.
SIRT5 block: blocks human SIRT5 desuccinylation of peptide | Q9NXA8 | Purified SirT5, succinyl-peptide AMC, trypsin-coupled fluorescence | inhibition, % at 15 µM | actives 1.1% (n = 330,000); in the data active = inhibition above about 15%
S100A4 inh HTS: S100A4-myosin IIA interaction inhibition | actives 0.14% (n = 360,000) | inhibition, % at 10.7 µM | P26447 | S100A4/TAMRA-MyoIIA peptide fluorescence polarization;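 active = mean inhibition of at least 70% across replicates, with every replicate also reaching that level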
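Material: S100A4 monomer protein / Buffer or medium: 50 mM HEPES pH 7.2, 10 mM CaCl2, 100 mM KCl / Times: 5 min incubation before reading / Benchmarks: neutral control DMSO, positive control TFP / Reagent: labelled myosin peptide probe, 5 nM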
ERp5 inh: inhibitors of human ERp5; Q15084; ERp5 insulin aggregation, absorbance 650 nm, 90 min; inhibition, % at 9.99 µM; actives 0.05% (n = 350,000); AID 651711;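 active = mean replicate inhibition above about 25%, with every replicate also reaching it, limit read from the data, passing the limit was not always enough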
FGF22 binding: FGF22 (human) thermal shift binding; actives 1.5% (n = 340,000); activity (Tm shift, normalised), % at 9.99 µM; Q9HCT0; recombinant FGF22 thermal shift, SYPRO orange fluorescence; percent of sucrose octasulfate shift, DMSO zero;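 active = mean Tm shift, scaled 0 neutral to 100 positive control, at about 1.3% or above, every replicate too, limit read from the data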
PDI inh: blocks human protein disulfide isomerase activity; P07237; PDI insulin aggregation turbidity, A650, 90 min; inhibition, % at 10 µM; actives 0.052% (n = 350,000); AID 588391;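 active = mean inhibition across replicates of 30% or more, whatever share of single replicates reach that level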
Yeast UUG start-1: modulators of start codon recognition fidelity in yeast; S. cerevisiae UUG-firefly luciferase reporter, luminescence/redox ratio; AID 602363; 350,000 tested, 0.13% active; activity score, % at 18.7 µM;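 active = replicate mean at a twofold rise or more, about +100% in these data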;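 also: firefly luciferase made from a UUG start codon reports start codon fidelity; reporter light over untreated wells divided by growth signal over untreated wells; some hits fall short of that in this replicate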
Yeast UUG start-2: yeast start codon fidelity modulation; activation, % at 38 µM; shares compounds with Yeast UUG start-1; S. cerevisiae UUG-start firefly luciferase, luminescence, 4 h; 100% means double the DMSO signal; 540 tested, under 10 active; AID 652061;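 active = signal increase whose fitted curve reaches an absolute level of 40 at a concentration under 10 µM; inactive = activity opposite to the expected increase, or the rest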
An asterisk follows results filed as active; i = inactive; . = not tested or not shown. An excerpt weighted towards active compounds, which were near 2.2% of everything screened.

#1 CCCN(C)C[C@@H]1Oc2cc(C3=CCCCC3)ccc2S(=O)(=O)N([C@@H](C)CO)C[C@@H]1C
#2 COc1ccc(-c2cnc3c(c2)C(=O)N([C@@H](C)CO)C[C@H](C)[C@@H](CN(C)Cc2ccccc2)O3)cc1
#3 CNC[C@H]1Oc2ccc(NS(=O)(=O)c3ccc(C)cc3)cc2C(=O)N([C@H](C)CO)C[C@@H]1C
#4 C[C@H](CO)N1C[C@H](C)[C@@H](CN(C)C)Oc2cc(C#Cc3cccc(F)c3)ccc2S1(=O)=O
#5 C[C@H]1CN([C@@H](C)CO)S(=O)(=O)c2ccc(C#Cc3cccc(F)c3)cc2O[C@@H]1CN(C)C

assay / entry | 1 | 2 | 3 | 4 | 5
SIRT5 block | -6.3 | 3.7 | -6.1 | 3.0 | -0.3
S100A4 inh HTS | -12.8 | 6.0 | -2.7 | -5.4 | 4.0
ERp5 inh | -2.9 | 4.6 | -0.5 | 0.2 | 10.1
FGF22 binding | 0.1 | 0.1 | 0.1 | -0.1 | -0.6
PDI inh | . | . | . | . | .
Yeast UUG start-1 | 155.9* | 16.6 | -9.9 | 16.7 | 107.2*
Yeast UUG start-2 | i | . | . | . | i

#6 C[C@@H]1CN([C@@H](C)CO)S(=O)(=O)c2ccc(C#CC3CC3)cc2O[C@@H]1CN(C)Cc1cccc(F)c1
#7 C[C@@H]1CCCCO[C@H](CN(C)C(=O)c2ccccc2)[C@H](C)CN([C@H](C)CO)C(=O)c2cc(NC(=O)c3ccccc3)ccc2O1
#8 CO[C@H]1CN(C)C(=O)c2ccc(NC(=O)C3CCOCC3)cc2OC[C@@H](C)N(Cc2cccnc2)C[C@@H]1C
#9 C[C@H]1CCCCO[C@H](CN(C)Cc2ccc3c(c2)OCO3)[C@@H](C)CN([C@@H](C)CO)C(=O)c2cc(NC(=O)c3ccncc3)ccc2O1
#10 CC(=O)NCc1nc2ccccc2n1Cc1ccccc1F

assay / entry | 6 | 7 | 8 | 9 | 10
SIRT5 block | 3.7 | 1.2 | . | 3.9 | .
S100A4 inh HTS | -9.7 | -6.7 | -3.8 | 12.8 | .
ERp5 inh | 1.6 | 4.7 | 4.4 | 9.7 | .
FGF22 binding | -0.2 | 0.0 | 0.0 | -0.2 | .
PDI inh | . | . | . | . | -9.6
Yeast UUG start-1 | 129.7* | . | -0.5 | 9.2 | -20.7
Yeast UUG start-2 | i | . | . | . | .

Structural class, the compounds so far with four or more nitrogen atoms (two)
#8 CO[C@H]1CN(C)C(=O)c2ccc(NC(=O)C3CCOCC3)cc2OC[C@@H](C)N(Cc2cccnc2)C[C@@H]1C
#9 C[C@H]1CCCCO[C@H](CN(C)Cc2ccc3c(c2)OCO3)[C@@H](C)CN([C@@H](C)CO)C(=O)c2cc(NC(=O)c3ccncc3)ccc2O1

assay / entry | 8 | 9
SIRT5 block | . | 3.9
S100A4 inh HTS | -3.8 | 12.8
ERp5 inh | 4.4 | 9.7
FGF22 binding | 0.0 | -0.2
PDI inh | . | .
Yeast UUG start-1 | -0.5 | 9.2
Yeast UUG start-2 | . | .

Next records follow.
#11 CC(=O)NCCCc1nc2ccccc2n1Cc1ccccc1F
#12 C[C@H]1CN([C@@H](C)CO)C(=O)Cc2cc(NC(=O)Cc3ccccc3)ccc2O[C@@H]1CN(C)C(=O)Nc1ccc(F)cc1
#13 CCN(CC)S(=O)(=O)c1ccc(C)c(NC(=O)COC(=O)C=C(C)C)c1
#14 CO[C@H]1CN(C)C(=O)c2ccc(NC(=O)C3CCOCC3)cc2OC[C@@H](C)N(C(C)=O)C[C@@H]1C
#15 CCCC(=O)Nc1ccc2c(c1)C(=O)N(C)C[C@@H](OC)[C@H](C)CN(S(=O)(=O)c1cn(C)cn1)[C@H](C)CO2

assay / entry | 11 | 12 | 13 | 14 | 15
SIRT5 block | -0.6 | 3.0 | -1.1 | . | .
S100A4 inh HTS | 0.9 | -3.3 | 16.9 | 5.5 | -6.5
ERp5 inh | -4.7 | -0.1 | 1.5 | -3.4 | -0.5
FGF22 binding | -0.2 | -0.1 | -0.1 | -0.1 | -0.2
PDI inh | -1.2 | . | -1.5 | . | .
Yeast UUG start-1 | 173.7* | 3.3 | 179.6* | 9.2 | -24.3
Yeast UUG start-2 | -3.7 | . | 0.6 | . | .

#16 CO[C@@H]1CN(C)C(=O)c2ccc(NC(=O)C3CCOCC3)cc2OC[C@@H](C)N(C(C)=O)C[C@H]1C
#17 CCCC(=O)Nc1ccc2c(c1)C(=O)N(C)C[C@@H](OC)[C@H](C)CN(S(=O)(=O)c1cn(C)cn1)[C@@H](C)CO2
#18 CO[C@@H]1CN(C)C(=O)c2ccc(NC(=O)Nc3c(C)noc3C)cc2OC[C@H](C)N(C)C[C@@H]1C
#19 CO[C@H]1CN(C)C(=O)c2ccc(NC(=O)c3nc4ccccc4s3)cc2OC[C@H](C)N(Cc2ccncc2)C[C@H]1C
#20 C[C@H]1CN([C@@H](C)CO)C(=O)c2cccc(NC(=O)c3ccc(-c4nccs4)cc3)c2O[C@@H]1CN(C)S(=O)(=O)c1ccc(F)cc1
#21 N=c1c(C(=O)NC2CCCC2)cc2c(=O)n3ccccc3nc2n1CCN1CCOCC1
#22 CN1c2ccc(-c3ccc(C#N)cc3)cc2[C@H]2[C@H](CCN2C(=O)c2cccc(F)c2)[C@@H]1CO

assay / entry | 16 | 17 | 18 | 19 | 20 | 21 | 22
SIRT5 block | . | -0.7 | -1.2 | 12.0 | 1.1 | . | -5.8
S100A4 inh HTS | -12.3 | -31.2 | -2.4 | 9.0 | -5.1 | . | 2.6
ERp5 inh | -1.6 | 0.3 | 4.5 | 9.7 | -1.1 | . | -2.0
FGF22 binding | -0.1 | 0.0 | -0.2 | 0.0 | -0.7 | . | -0.2
PDI inh | . | . | . | . | . | 4.1 | .
Yeast UUG start-1 | 147.1* | 133.8* | 69.2* | 172.9* | 16.1 | 474.5* | -8.9
Yeast UUG start-2 | i | i | i | i | . | -9.0 | .
